Tested on: Male mice (NMRI, Charles River)
Assay: animal or person
Settings: Mus musculus, po, 1 h, read-out: % reversal of PCP induced hyperactivity

For `Cc1ncc(C)n2nc(CCc3nc(-c4ccccc4)cn3C)nc12` [5,8-Dimethyl-2-[2-(1-methyl-4-phenyl-1H-imidazol-2-yl)-ethyl]-[1,2,4]triazolo[1,5-a]pyrazine], which inhibition in vivo at 5 mg/kg is on record?
The inhibition in vivo at 5 mg/kg was 99%.
